Results on 1 substance are retold here after patent US5138040A, “Composition for magnetic resonance imaging” (Mallinckrodt Medical, Inc., priority 1991, dated 1992).

One series relates to mouse. The note with it: i.v., 0.5M solution, confidence limit of 27.3-38.8 mmol/kg.
The conditions of series [1]: 20 MHz, 40° C.

For orientation: LD50 means the dose at which mortality reaches 50%. Read a high LD50 as a less toxic substance.

Like-named read-outs stand apart in the source and are kept apart here.

For the substance “{Aqua(N,N"-bis(N""-2-methoxyethylcarbamoylmethyl-N"'-methylcarbamoylmethyl)diethylenetraimine-N,N', N"-tri acetate)}gadolinium(III)”, the 50% lethal dose (LD50) with mouse was 32.5 mmol/kg. For the same substance, the results for the R1 relaxivity rate in series [1] (4% bovine serum albumin (BSA)) and in series [1] (sterile water for injection (SWFI)) were 4.6 mmol⁻¹ s⁻¹ and 4.3 mmol⁻¹ s⁻¹, respectively.
